The values that follow come from ChEMBL document CHEMBL4834434, “Discovery of Novel and Potent N-Methyl-d-aspartate Receptor Positive Allosteric Modulators with Antidepressant-like Activity in Rodent Models” (J Med Chem, 2021).

Sequences of proteins named here, by UniProt entry; tags and fusion partners are left off. A change or cut given only in a name is not applied to a line headed by its entry.
UniProt Q91ZU9: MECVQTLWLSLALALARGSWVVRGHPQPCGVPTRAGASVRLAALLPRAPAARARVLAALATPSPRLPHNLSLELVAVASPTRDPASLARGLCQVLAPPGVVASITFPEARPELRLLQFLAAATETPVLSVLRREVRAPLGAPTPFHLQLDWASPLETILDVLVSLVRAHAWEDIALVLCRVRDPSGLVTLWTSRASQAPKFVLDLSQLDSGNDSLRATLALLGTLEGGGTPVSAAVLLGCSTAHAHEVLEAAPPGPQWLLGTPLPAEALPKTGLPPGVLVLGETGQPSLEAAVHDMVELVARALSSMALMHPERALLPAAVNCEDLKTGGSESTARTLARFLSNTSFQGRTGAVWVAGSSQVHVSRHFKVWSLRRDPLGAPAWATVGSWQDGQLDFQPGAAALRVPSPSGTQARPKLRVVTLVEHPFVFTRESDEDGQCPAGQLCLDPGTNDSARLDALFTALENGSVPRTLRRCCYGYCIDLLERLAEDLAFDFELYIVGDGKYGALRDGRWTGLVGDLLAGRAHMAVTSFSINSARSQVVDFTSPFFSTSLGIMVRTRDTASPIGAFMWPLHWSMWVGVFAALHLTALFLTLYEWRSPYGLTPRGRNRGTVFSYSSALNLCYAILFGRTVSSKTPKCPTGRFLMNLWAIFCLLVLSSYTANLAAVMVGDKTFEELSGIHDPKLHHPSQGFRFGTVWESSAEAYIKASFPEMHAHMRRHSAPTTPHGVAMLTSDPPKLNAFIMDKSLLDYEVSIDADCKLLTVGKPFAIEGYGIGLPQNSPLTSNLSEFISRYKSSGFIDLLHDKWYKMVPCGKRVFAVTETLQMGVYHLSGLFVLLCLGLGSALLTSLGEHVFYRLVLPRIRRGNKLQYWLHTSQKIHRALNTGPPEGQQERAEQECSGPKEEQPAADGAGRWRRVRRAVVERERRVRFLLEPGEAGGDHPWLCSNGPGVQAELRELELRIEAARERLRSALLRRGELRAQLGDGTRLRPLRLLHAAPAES
UniProt Q03391: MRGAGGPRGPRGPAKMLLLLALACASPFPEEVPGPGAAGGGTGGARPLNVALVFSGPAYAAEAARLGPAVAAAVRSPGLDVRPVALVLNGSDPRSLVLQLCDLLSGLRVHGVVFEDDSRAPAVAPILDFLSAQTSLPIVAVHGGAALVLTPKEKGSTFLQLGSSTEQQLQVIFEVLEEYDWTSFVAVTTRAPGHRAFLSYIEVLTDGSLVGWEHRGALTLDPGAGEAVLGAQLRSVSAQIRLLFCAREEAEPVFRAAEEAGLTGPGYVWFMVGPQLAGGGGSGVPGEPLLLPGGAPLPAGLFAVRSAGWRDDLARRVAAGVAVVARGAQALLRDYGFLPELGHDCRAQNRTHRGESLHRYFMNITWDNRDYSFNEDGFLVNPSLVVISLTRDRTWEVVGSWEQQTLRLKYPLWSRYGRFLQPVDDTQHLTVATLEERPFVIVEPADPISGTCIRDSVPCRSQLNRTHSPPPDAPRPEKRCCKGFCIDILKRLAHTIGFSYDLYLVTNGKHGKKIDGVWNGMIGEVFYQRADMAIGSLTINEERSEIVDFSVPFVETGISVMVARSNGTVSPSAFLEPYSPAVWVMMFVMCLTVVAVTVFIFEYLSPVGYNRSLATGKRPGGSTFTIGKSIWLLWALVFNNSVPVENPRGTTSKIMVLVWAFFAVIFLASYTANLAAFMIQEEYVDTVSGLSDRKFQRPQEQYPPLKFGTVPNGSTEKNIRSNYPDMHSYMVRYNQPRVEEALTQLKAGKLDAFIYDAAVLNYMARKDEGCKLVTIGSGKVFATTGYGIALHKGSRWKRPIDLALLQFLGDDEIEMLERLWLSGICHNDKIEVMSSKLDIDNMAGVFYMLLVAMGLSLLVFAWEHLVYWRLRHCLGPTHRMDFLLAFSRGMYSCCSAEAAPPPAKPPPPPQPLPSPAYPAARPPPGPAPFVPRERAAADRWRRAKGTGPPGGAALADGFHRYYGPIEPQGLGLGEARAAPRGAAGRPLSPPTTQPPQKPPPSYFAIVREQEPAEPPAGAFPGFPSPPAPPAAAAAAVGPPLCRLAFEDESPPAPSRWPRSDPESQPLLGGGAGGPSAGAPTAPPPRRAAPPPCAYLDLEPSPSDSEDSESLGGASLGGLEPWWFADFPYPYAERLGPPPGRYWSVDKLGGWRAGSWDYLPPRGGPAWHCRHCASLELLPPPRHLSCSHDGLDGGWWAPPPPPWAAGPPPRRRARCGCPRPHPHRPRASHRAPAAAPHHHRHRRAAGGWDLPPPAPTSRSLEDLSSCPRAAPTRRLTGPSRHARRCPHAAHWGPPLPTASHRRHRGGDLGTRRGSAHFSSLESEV
UniProt Q01097: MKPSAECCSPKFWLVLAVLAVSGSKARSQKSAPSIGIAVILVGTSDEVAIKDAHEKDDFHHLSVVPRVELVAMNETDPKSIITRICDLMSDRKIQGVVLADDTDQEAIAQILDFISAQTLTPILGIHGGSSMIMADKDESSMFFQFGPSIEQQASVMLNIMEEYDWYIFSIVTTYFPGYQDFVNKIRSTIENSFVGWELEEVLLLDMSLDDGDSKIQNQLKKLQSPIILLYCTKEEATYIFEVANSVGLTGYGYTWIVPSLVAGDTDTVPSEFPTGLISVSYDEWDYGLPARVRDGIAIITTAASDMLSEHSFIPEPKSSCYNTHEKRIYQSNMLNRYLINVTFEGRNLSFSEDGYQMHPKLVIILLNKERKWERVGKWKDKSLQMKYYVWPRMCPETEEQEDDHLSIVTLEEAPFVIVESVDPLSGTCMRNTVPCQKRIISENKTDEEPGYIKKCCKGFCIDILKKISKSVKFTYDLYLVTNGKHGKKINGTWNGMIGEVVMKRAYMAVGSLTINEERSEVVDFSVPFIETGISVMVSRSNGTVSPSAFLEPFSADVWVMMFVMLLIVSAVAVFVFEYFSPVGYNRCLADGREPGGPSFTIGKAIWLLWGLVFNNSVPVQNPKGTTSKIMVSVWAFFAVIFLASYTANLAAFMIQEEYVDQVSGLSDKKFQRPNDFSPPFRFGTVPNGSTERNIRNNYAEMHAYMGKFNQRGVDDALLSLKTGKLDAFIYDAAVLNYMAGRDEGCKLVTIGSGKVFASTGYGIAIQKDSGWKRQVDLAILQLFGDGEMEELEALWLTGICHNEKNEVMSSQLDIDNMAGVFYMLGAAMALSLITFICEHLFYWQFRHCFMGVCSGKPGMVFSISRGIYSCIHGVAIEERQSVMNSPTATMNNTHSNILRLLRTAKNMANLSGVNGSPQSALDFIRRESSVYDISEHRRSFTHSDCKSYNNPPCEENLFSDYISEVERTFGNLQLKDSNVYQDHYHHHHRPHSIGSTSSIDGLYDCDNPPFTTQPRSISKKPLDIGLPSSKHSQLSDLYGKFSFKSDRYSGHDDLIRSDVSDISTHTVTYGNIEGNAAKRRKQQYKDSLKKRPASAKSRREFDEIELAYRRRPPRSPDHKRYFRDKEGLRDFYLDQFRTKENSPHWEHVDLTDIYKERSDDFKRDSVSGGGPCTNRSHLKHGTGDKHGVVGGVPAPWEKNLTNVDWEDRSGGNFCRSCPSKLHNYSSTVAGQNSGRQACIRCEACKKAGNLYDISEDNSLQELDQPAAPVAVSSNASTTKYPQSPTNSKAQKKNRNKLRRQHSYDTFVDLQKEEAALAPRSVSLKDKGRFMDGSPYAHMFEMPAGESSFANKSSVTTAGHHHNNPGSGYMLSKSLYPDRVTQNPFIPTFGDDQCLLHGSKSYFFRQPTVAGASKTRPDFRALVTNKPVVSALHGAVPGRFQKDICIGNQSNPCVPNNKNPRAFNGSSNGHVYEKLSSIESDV
UniProt Q01098: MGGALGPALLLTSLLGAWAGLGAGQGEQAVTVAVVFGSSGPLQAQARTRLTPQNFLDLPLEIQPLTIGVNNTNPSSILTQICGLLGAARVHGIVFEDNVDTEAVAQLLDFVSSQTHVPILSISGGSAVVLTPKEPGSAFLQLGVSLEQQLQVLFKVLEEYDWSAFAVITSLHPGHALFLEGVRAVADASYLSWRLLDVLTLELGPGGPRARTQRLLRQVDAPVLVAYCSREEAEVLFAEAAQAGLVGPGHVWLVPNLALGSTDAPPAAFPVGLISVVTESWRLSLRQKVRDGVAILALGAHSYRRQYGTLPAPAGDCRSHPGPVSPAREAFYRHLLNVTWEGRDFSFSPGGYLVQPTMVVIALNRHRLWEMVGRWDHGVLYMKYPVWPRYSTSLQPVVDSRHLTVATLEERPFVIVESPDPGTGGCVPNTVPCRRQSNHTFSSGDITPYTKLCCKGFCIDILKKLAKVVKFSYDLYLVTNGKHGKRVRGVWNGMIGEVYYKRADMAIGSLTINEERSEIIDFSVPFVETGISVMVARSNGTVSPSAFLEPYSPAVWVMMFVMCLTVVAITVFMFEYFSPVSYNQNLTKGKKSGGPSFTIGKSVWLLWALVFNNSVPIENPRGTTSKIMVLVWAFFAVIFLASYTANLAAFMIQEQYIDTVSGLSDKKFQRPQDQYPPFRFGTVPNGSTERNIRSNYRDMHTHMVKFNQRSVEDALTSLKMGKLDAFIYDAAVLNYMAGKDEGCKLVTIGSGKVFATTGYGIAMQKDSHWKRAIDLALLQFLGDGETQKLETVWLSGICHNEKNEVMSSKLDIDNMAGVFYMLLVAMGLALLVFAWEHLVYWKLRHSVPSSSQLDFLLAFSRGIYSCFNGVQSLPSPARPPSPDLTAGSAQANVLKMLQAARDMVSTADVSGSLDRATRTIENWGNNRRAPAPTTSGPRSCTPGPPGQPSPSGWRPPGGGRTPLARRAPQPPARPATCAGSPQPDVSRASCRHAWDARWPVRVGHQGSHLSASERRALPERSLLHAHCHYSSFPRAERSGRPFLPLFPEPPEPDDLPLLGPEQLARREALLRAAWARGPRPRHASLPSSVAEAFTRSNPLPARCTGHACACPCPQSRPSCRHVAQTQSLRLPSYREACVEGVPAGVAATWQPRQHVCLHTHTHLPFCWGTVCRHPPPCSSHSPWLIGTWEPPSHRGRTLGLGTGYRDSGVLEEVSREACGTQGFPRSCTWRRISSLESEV
UniProt A2AIR5: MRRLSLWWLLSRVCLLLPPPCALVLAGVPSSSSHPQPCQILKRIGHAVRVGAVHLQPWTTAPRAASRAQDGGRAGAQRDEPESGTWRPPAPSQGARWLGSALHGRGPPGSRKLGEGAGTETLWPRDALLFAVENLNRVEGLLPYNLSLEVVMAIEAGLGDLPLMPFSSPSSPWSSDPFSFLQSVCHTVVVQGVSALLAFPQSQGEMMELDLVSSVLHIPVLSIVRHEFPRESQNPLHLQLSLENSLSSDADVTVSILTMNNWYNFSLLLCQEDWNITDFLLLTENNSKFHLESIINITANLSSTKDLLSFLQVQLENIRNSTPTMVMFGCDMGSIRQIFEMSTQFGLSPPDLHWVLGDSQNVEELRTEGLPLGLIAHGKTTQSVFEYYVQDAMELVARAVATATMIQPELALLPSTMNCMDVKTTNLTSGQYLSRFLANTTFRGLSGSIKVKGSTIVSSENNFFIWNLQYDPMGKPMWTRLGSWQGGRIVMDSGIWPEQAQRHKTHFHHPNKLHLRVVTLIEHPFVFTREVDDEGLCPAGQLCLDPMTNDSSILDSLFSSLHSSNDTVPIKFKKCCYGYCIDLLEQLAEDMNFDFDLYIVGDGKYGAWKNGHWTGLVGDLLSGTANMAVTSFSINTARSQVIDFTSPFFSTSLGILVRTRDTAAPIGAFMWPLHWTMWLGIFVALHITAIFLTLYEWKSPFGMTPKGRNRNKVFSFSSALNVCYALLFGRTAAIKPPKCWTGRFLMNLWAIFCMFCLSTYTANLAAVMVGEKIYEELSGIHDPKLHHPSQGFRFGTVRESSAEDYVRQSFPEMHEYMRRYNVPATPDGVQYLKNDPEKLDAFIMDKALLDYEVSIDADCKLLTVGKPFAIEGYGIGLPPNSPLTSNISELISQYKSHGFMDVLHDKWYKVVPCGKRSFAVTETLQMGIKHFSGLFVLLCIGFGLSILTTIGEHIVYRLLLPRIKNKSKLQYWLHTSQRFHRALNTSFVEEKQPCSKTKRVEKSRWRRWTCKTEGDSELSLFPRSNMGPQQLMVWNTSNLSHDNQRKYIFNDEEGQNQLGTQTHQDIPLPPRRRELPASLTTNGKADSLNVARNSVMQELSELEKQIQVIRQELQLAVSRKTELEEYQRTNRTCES

The target of experiment [1] is T1, Glutamate NMDA receptor (Mus musculus) (UniProt P35436+Q91ZU9+Q03391+P35438+Q01097+Q01098+A2AIR5). In words: Positive allosteric modulation of C57BL/6 mouse NMDA receptor assessed as fold change in compound potentiated NMDA-induced current relative to NMDA current alone at 30 uM measured after 15 to 30 mins by patch-clamp method. The experiment is classed as tissue-based. Conditions: Brain, filed as positive allosteric modulator, time 15-30 min.

Experiment [2] concerns the target T1, Glutamate NMDA receptor (Mus musculus). In words: Positive allosteric modulation of C57BL/6 mouse NMDA receptor assessed as fold change in compound potentiated NMDA-induced current relative to NMDA current alone in presence of saturating glutamate by patch-clamp method. Type of experiment: tissue-based. Particulars: Brain, filed as positive allosteric modulator.

`O=C(Nc1cc(Cl)cc(Cl)c1)c1ccc(Cn2nc(C(F)(F)F)cc2C(F)(F)F)o1`: the fold change (FC) in experiment [1] and in experiment [2] was 13.8 throughout.
